Values of other authors as cited in US20090017108A1, “Liposome compositions for treatment of hepatitis C” (priority 2007, published 2009).

Test system: hepatitis C
Conditions: six months after treatment was discontinued; 24 weeks of treatment; interferon alpha-2b 3 million units three times a week, oral ribavirin 1.0 g to 1.2 g daily or placebo

Substance: interferon alpha-2b
- subjects with undetectable serum viral RNA: 4.7%
